Earlier results, collected in patent US20140194479A1 (published 2014).

System: 5-HT uptake
Settings: McEwen et al., 2010, Mennini et al., 1987; cited from earlier work

CN1c2ccccc2C(NCCCCCCC(=O)O)c2ccc(Cl)cc2S1(=O)=O (stereo not shown) [tianeptine]
Vmax of 5-HT uptake: increases
